# Test results as given in PubChem BioAssay (NCI).
# The entries are a selection whose mix differs from that of the whole data set. More than one record can exist for a structure, and the calls need not agree. Active and inactive are the calls of the source. Cut-off read from the data, not from the text of the source: active = growth inhibition above about 70%; inactive = the rest.
# Tests used:
# [1] = NCI Yeast Anticancer Drug Screen. Data for the rad50 strain (AID 155);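 note: 0% = growth of vehicle-only cultures of the same strain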; details: S. cerevisiae rad50 strain growth inhibition, stronger effect = higher value
# [2] = NCI Yeast Anticancer Drug Screen. Data for the mec2-1 strain (AID 157); details: S. cerevisiae mec2-1 strain, stronger effect = higher value
# [3] = NCI Yeast Anticancer Drug Screen. Data for the sgs1 mgt1 strain (AID 161);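 note: 0% = growth of cultures given vehicle only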; details: S. cerevisiae sgs1 mgt1 strain, stronger effect = higher value
# [4] = NCI Yeast Anticancer Drug Screen. Data for the cln2 rad14 strain (AID 165);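 note: 0% = growth equal to vehicle treated cultures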; details: S. cerevisiae cln2 rad14 strain, stronger effect = higher value
# [5] = NCI Yeast Anticancer Drug Screen. Data for the bub3 strain (AID 167); details: S. cerevisiae bub3 mutant strain, stronger effect = higher value
# [6] = NCI Yeast Anticancer Drug Screen. Data for the mlh1 rad18 strain (AID 175); details: S. cerevisiae mlh1 rad18 strain growth inhibition, stronger effect = higher value
# [7] = at 5.0 µM (retest, dose inferred, filed as 0.5)
# [8] = at 50.0 µM (retest, dose inferred, filed as 5.0)
structure (smiles),measurement,setting,value
ClCCN1CCCCC1CCl (configuration not stated),growth inhibition,[1]; at 1.2 µM,inactive: 1%
same,growth inhibition,[1]; at 3.7 µM,inactive: 4%
same,growth inhibition,[1]; [7],inactive: 6%
same,growth inhibition,[1]; at 11.0 µM,inactive: 30%
same,growth inhibition,[1]; at 33.0 µM,active: 84%
same,growth inhibition,[1]; [8],active: 88%
same,growth inhibition,[1]; at 50.0 µM,active: 73.7%
same,growth inhibition,[1]; at 100.0 µM,active: 95%
same,growth inhibition,[2]; at 1.2 µM,inactive: -1%
same,growth inhibition,[2]; at 3.7 µM,inactive: 2%
same,growth inhibition,[2]; [7],inactive: 8%
same,growth inhibition,[2]; at 11.0 µM,inactive: 9%
same,growth inhibition,[2]; at 33.0 µM,inactive: 46%
same,growth inhibition,[2]; [8],inactive: 69%
same,growth inhibition,[2]; at 50.0 µM,inactive: 33.6%
same,growth inhibition,[2]; at 100.0 µM,active: 95%
same,growth inhibition,[3]; [7],inactive: -4%
same,growth inhibition,[3]; [8],inactive: 56%
same,growth inhibition,[3]; at 50.0 µM,inactive: 13.6%
same,growth inhibition,[4]; [7],inactive: 4%
same,growth inhibition,[4]; [8],active: 86%
same,growth inhibition,[4]; at 50.0 µM,inactive: 36.9%
same,growth inhibition,[5]; at 1.2 µM,inactive: 0%
same,growth inhibition,[5]; at 3.7 µM,inactive: -1%
same,growth inhibition,[5]; [7],inactive: -1%
same,growth inhibition,[5]; at 11.0 µM,inactive: -1%
same,growth inhibition,[5]; at 33.0 µM,inactive: -1%
same,growth inhibition,[5]; [8],inactive: 15%
same,growth inhibition,[5]; at 50.0 µM,inactive: -19.4%
same,growth inhibition,[5]; at 100.0 µM,inactive: 34%
same,growth inhibition,[6]; [7],inactive: 9%
same,growth inhibition,[6]; [8],active: 92%
same,growth inhibition,[6]; at 50.0 µM,active: 77.1%
CCNC(=O)Cc1ccc(N(CCCl)CCCl)cc1,growth inhibition,[1]; at 50.0 µM,inactive: -6.25%
same,growth inhibition,[2]; at 50.0 µM,inactive: -7.65%
same,growth inhibition,[3]; at 50.0 µM,inactive: -5.9%
same,growth inhibition,[4]; at 50.0 µM,inactive: 3.65%
same,growth inhibition,[5]; at 50.0 µM,inactive: 1.45%
same,growth inhibition,[6]; at 50.0 µM,inactive: 5.35%
CC(=O)n1c(=O)n(C2CCN(CCCC(=O)c3ccc(F)cc3)CC2)c2ccccc21,growth inhibition,[1]; [7],inactive: 9%
same,growth inhibition,[1]; [8],inactive: 19%
same,growth inhibition,[1]; at 50.0 µM,inactive: 68.1%
same,growth inhibition,[2]; [7],inactive: 4%
same,growth inhibition,[2]; [8],inactive: 23%
same,growth inhibition,[2]; at 50.0 µM,inactive: 25.6%
same,growth inhibition,[3]; [7],inactive: 7%
same,growth inhibition,[3]; [8],inactive: 48%
same,growth inhibition,[3]; at 50.0 µM,active: 73.2%
same,growth inhibition,[4]; [7],inactive: 6%
same,growth inhibition,[4]; [8],active: 78%
same,growth inhibition,[4]; at 50.0 µM,inactive: 57.5%
same,growth inhibition,[5]; [7],inactive: 8%
same,growth inhibition,[5]; [8],inactive: 44%
same,growth inhibition,[5]; at 50.0 µM,inactive: 67.7%
same,growth inhibition,[6]; [7],inactive: 0%
same,growth inhibition,[6]; [8],inactive: 50%
same,growth inhibition,[6]; at 50.0 µM,active: 72.1%
C1CCNCC1.O=C(O)C(O)c1ccc(N(CCCl)CCCl)cc1 (configuration not stated),growth inhibition,[1]; at 50.0 µM,inactive: 8.9%
same,growth inhibition,[2]; at 50.0 µM,inactive: -7.35%
same,growth inhibition,[3]; at 50.0 µM,inactive: -2.55%
same,growth inhibition,[4]; at 50.0 µM,inactive: 15.1%
same,growth inhibition,[5]; at 50.0 µM,inactive: -21.6%
same,growth inhibition,[6]; at 50.0 µM,inactive: 13%
Cc1ccc(C[N+](C)(CCCl)CCCl)c([N+](=O)[O-])c1,growth inhibition,[1]; [7],inactive: 9%
same,growth inhibition,[1]; [8],active: 86%
same,growth inhibition,[1]; at 50.0 µM,active: 81.8%
same,growth inhibition,[2]; [7],inactive: -2%
same,growth inhibition,[2]; [8],active: 81%
same,growth inhibition,[2]; at 50.0 µM,active: 78%
same,growth inhibition,[3]; [7],inactive: 3%
same,growth inhibition,[3]; [8],inactive: 54%
same,growth inhibition,[3]; at 50.0 µM,inactive: 59.4%
same,growth inhibition,[4]; [7],inactive: 23%
same,growth inhibition,[4]; [8],active: 82%
same,growth inhibition,[4]; at 50.0 µM,active: 79%
same,growth inhibition,[5]; [7],inactive: 9%
same,growth inhibition,[5]; [8],inactive: 60%
same,growth inhibition,[5]; at 50.0 µM,inactive: 15.1%
same,growth inhibition,[6]; [7],inactive: 33%
same,growth inhibition,[6]; [8],active: 92%
same,growth inhibition,[6]; at 50.0 µM,active: 81.7%
N#Cc1ccc(C(=O)CBr)cc1,growth inhibition,[1]; at 50.0 µM,inactive: 18.2%
same,growth inhibition,[2]; at 50.0 µM,inactive: 31.4%
same,growth inhibition,[3]; at 50.0 µM,inactive: -3.35%
same,growth inhibition,[4]; at 50.0 µM,inactive: 2.15%
same,growth inhibition,[5]; at 50.0 µM,inactive: -3.15%
same,growth inhibition,[6]; at 50.0 µM,inactive: 16.8%
O=Cc1cc(N(CCCl)CCCl)ccc1O,growth inhibition,[1]; [7],inactive: 4%
same,growth inhibition,[1]; [8],inactive: 30%
same,growth inhibition,[1]; at 50.0 µM,inactive: 32.2%
same,growth inhibition,[2]; [7],inactive: -3%
same,growth inhibition,[2]; [8],inactive: 18%
same,growth inhibition,[2]; at 50.0 µM,inactive: 7.8%
same,growth inhibition,[3]; [7],inactive: 7%
same,growth inhibition,[3]; [8],inactive: 33%
same,growth inhibition,[3]; at 50.0 µM,inactive: 9.6%
same,growth inhibition,[4]; [7],inactive: -8%
same,growth inhibition,[4]; [8],inactive: 14%
same,growth inhibition,[4]; at 50.0 µM,inactive: 22.9%
same,growth inhibition,[5]; [7],inactive: -5%
same,growth inhibition,[5]; [8],inactive: -1%
same,growth inhibition,[5]; at 50.0 µM,inactive: 12.5%
same,growth inhibition,[6]; [7],inactive: 6%
same,growth inhibition,[6]; [8],inactive: 43%
same,growth inhibition,[6]; at 50.0 µM,inactive: 62.8%
Oc1cc(O)cc(N(CCCl)CCCl)c1,growth inhibition,[1]; at 50.0 µM,inactive: 22.6%
same,growth inhibition,[2]; at 50.0 µM,inactive: 17.3%
same,growth inhibition,[3]; at 50.0 µM,inactive: 29.6%
same,growth inhibition,[4]; at 50.0 µM,inactive: 12.3%
same,growth inhibition,[5]; at 50.0 µM,inactive: 6.8%
same,growth inhibition,[6]; at 50.0 µM,inactive: 46.5%
O=C(c1ccc(Br)cc1)C(Br)Br,growth inhibition,[1]; [7],inactive: 40%
same,growth inhibition,[1]; [8],active: 91%
same,growth inhibition,[1]; at 50.0 µM,active: 91.8%
same,growth inhibition,[2]; [7],inactive: 51%
same,growth inhibition,[2]; [8],active: 97%
same,growth inhibition,[2]; at 50.0 µM,active: 94%
same,growth inhibition,[3]; [7],active: 99%
same,growth inhibition,[3]; [8],active: 99%
same,growth inhibition,[3]; at 50.0 µM,active: 94.3%
same,growth inhibition,[4]; [7],active: 74%
same,growth inhibition,[4]; [8],active: 100%
same,growth inhibition,[4]; at 50.0 µM,active: 93.8%
same,growth inhibition,[5]; [7],active: 99%
same,growth inhibition,[5]; [8],active: 99%
same,growth inhibition,[5]; at 50.0 µM,active: 93.2%
same,growth inhibition,[6]; [7],inactive: 38%
same,growth inhibition,[6]; [8],active: 98%
same,growth inhibition,[6]; at 50.0 µM,active: 92.3%
O=C(CN(CCCl)CCCl)Nc1cccc(F)c1,growth inhibition,[1]; at 50.0 µM,inactive: 11.7%
same,growth inhibition,[2]; at 50.0 µM,inactive: 6.45%
same,growth inhibition,[3]; at 50.0 µM,inactive: 0.55%
same,growth inhibition,[4]; at 50.0 µM,inactive: 9.85%
same,growth inhibition,[5]; at 50.0 µM,inactive: 16.8%
same,growth inhibition,[6]; at 50.0 µM,inactive: 2.2%
CCCCN(CCCl)CCCC,growth inhibition,[1]; at 50.0 µM,inactive: 27%
same,growth inhibition,[2]; at 50.0 µM,inactive: 27.8%
same,growth inhibition,[3]; at 50.0 µM,inactive: 39.8%
same,growth inhibition,[4]; at 50.0 µM,inactive: 3.15%
same,growth inhibition,[5]; at 50.0 µM,inactive: 40.8%
same,growth inhibition,[6]; at 50.0 µM,inactive: 35%
ClCCN(CCCl)C1Cc2ccccc2C1,growth inhibition,[1]; at 50.0 µM,inactive: 11.1%
same,growth inhibition,[2]; at 50.0 µM,inactive: 10.9%
same,growth inhibition,[3]; at 50.0 µM,inactive: -17.2%
same,growth inhibition,[4]; at 50.0 µM,inactive: -0.55%
same,growth inhibition,[5]; at 50.0 µM,inactive: -20.2%
same,growth inhibition,[6]; at 50.0 µM,inactive: 5.1%
